Earlier results, collected in patent publication US20230295183A1, “HOT MELT EXTRUDED SOLID DISPERSIONS CONTAINING A BCL2 INHIBITOR” (Newave Pharmaceutical Inc., priority 2020, published 2023).

Amino acid sequences for entries named in this document (tags omitted).
UniProt P10415, whole entry: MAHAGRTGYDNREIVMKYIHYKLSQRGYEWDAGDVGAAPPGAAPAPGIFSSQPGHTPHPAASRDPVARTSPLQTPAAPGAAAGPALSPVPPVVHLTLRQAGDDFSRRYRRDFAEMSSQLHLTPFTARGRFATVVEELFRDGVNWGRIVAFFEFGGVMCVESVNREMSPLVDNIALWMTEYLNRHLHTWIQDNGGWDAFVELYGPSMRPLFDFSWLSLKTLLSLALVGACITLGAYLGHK

Molecular target: BCL-2 (Homo sapiens, UniProt P10415)

CC1(C)CCC(c2ccc(Cl)cc2)=C(CN2CCN(c3ccc(C(=O)NS(=O)(=O)c4ccc(N[C@H](CCN5CCOCC5)CSc5ccccc5)c(S(=O)(=O)C(F)(F)F)c4)cc3)CC2)C1 [ABT-263]
Ki: ≤ 1 nM
